Sequences of proteins named here, by UniProt entry; tags and fusion partners are left off. A change or cut given only in a name is not applied to a line headed by its entry.
UniProt P11712, whole entry: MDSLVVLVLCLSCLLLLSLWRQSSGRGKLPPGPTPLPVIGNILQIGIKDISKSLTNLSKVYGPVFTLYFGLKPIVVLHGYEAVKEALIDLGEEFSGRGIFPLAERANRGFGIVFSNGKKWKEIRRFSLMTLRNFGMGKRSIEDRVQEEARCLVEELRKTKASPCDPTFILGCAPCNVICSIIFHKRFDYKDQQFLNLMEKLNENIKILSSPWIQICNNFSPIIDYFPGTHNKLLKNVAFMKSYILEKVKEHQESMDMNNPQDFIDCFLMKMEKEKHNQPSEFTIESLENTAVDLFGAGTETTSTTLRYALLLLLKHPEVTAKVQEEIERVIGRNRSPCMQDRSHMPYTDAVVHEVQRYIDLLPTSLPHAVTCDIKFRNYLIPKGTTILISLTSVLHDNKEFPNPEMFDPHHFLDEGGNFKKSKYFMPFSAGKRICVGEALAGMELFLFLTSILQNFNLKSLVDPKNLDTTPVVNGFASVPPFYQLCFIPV
UniProt P05181: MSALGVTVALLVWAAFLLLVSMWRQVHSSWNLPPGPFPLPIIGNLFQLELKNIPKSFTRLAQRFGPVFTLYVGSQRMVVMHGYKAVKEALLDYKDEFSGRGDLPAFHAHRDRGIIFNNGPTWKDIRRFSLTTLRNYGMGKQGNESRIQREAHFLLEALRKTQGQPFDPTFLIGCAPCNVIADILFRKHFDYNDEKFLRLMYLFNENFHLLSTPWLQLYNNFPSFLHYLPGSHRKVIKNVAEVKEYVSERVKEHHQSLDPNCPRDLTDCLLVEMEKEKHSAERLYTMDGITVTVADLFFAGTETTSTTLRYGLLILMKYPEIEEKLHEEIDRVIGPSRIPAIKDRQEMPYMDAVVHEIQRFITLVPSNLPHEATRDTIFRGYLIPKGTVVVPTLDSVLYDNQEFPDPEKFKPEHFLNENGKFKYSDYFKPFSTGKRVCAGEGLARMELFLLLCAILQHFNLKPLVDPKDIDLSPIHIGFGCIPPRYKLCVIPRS
UniProt P20813: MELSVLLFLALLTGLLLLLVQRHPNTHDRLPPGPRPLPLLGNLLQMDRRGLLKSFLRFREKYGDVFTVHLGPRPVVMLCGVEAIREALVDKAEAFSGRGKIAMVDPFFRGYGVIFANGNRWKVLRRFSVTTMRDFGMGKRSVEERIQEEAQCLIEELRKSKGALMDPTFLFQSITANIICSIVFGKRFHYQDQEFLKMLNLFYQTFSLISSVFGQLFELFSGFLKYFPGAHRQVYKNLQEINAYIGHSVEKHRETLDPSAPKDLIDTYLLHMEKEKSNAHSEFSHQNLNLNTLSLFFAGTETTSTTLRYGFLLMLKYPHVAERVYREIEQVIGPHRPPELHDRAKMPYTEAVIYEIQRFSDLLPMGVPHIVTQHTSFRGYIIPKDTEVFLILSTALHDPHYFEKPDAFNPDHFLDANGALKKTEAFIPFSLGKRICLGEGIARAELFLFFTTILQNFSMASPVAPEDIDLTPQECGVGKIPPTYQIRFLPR

According to PMC11022895 (Drug Metabolism and Disposition, 2021):

How the values were obtained:
CYP2C9 [1] = biological target: T1, CYP2C9 (Homo sapiens, UniProt P11712); assay: biochemical
CYP2C9 [2] = biological target: T1, CYP2C9; assay: biochemical; remark: listed apart in the source
CYP2C9 [3] = biological target: T1, CYP2C9; conditions: IC50 minus NADPH/IC50 plus NADPH
CYP2E1 = CYP2E1 (Homo sapiens, UniProt P05181); assay: IC50 shift study; assay type: in vitro ADME; conditions: IC50 minus NADPH/IC50 plus NADPH
CYP2B6 = CYP2B6 (Homo sapiens, UniProt P20813); assay: IC50 shift study; assay type: in vitro ADME; conditions: IC50 minus NADPH/IC50 plus NADPH
CYP2C9 [4] = biological target: T1, CYP2C9; assay: biochemical; remark: listed apart in the source

CCCCCc1cc(O)c2c(c1)OC(C)(C)c1ccc(C)cc1-2 [CBN, cannabinol]
IC50 (CYP2C9 [1]; IC50 (+)): 2700 ± 2100 nM | IC50 (CYP2C9 [1]; IC50 (−)): 3000 ± 2200 nM | IC50 (CYP2C9 [2]; IC50): 2900 ± 510 nM | IC50 (CYP2C9 [2]; IC50,u): 1510 ± 270 nM | Ki (CYP2C9 [2]; Ki): 1900 ± 1300 nM | Ki (CYP2C9 [2]; Ki,u): 990 ± 680 nM | Shift (CYP2C9 [3]): 1.1 ± 0.11 | Shift (CYP2E1): 1.2 ± 0.16 | Shift (CYP2B6): 1.1 ± 0.061 | IC50 (CYP2C9 [4]; IC50): 1400 ± 440 nM | IC50 (CYP2C9 [4]; IC50,u): 420 ± 130 nM | Ki (CYP2C9 [4]; Ki): 1000 ± 190 nM | Ki (CYP2C9 [4]; Ki,u): 300 ± 57 nM
